Measured values from EP1935887A1, “Heterocyclic substituted carbonyl derivatives and their use as dopamine D3 receptor ligands” (Aventis Pharmaceuticals Inc., priority 2001, dated 2002).
pKi: −log10 of the molar value. Like-named read-outs stand apart in the source and are kept apart here.

By UniProt entry, the sequences of proteins in these tests, tags left out.
UniProt P35462, whole entry: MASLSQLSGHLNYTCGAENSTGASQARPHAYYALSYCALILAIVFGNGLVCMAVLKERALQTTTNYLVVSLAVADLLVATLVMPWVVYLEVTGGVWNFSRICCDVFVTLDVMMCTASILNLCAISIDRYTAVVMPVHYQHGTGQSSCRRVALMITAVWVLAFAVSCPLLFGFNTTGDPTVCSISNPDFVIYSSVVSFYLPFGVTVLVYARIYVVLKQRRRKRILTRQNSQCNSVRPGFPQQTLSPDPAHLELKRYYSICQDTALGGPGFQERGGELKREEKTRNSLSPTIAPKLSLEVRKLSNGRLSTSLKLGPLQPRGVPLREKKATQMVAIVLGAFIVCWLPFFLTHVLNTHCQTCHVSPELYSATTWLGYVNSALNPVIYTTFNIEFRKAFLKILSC

Biological target: Cloned Human Dopamine D3 Receptors (Homo sapiens, UniProt P35462)
Experiment: [N-Methyl-3H]Spiroperidol binding to cloned human dopamine D3 receptors
Text: [N-Methyl-^3H]Spiroperidol Binding to Cloned Human Dopamine D3 Receptors
This assay measures the in vitro activity of compounds on cloned human dopamine (D3) receptors and predicts the direct dopamine-blocking properties of putative neuropsychiatric agents at human dopamine D3 receptors.
The D3 gene was isolated from a human striatal cDNA library (Stratagene). The gene was sequenced and sub-cloned into the expression vector RC/RSV (Invitrogen). CHO (Chinese Hamster Ovary) cells were stably transfected with 10 µg of the D3/RSV plasmid using the DOTAP method from Boehringer Mannheim and 72 clones that were G418 resistant were isolated. Using mRNA and binding displacement data a single high expressing clone was identified. This clone was then grown in large batches for the purpose of developing a 96 well format assay.
• 1. One plate (10 cm) with approximately 2-3 million D3 cells per plate is incubated with 1 ml of Trypsin-EDTA at room temperature for -2 min or until cells have lifted off plates. Four ml of Ham's F12 + 10% Fetal Bovine Serum + 1% Penicillin/Streptomycin + G418 (400 µg/ml) medium are added to resuspend cells and 1 ml of this is added to each large plate (15 cm) containing 19 ml of the same medium as mentioned above. • 2. The 5 large plates are incubated at 37°C + 5% CO2 for - 3 days or until the cells are confluent. • 3. After these plates are confluent, they are split into 10 large plates. Medium is aspirated off, 2 ml of Trypsin-EDTA are added to each plate and plates are incubated at RT for 2 min or until cells have lifted off the plate. Eight ml of the F12 medium (same medium as #1 above) are added to each plate (10 ml total) to resuspend the cells and 5 ml are transferred to the 2 new plates containing 15 ml of the F12 media. • 4. The 10 large plates are incubated at 37°C + 5% CO2 for ∼ 2 days or until the cells are confluent. • 5. The 10 large plates are split into 60 large plates (using Trypsin-EDTA as #3 except 4 ml of F12 medium are added to resuspend cells and 1 ml is aliquoted to 6 new plates containing 19 ml of F12 medium each). • 6. Plates are incubated at 37°C + 5% CO2 for - 3 days or until cell are confluent. • 7. The 60 large plates are then split into 60 roller bottles (100-150 million cells/bottle). Medium is aspirated off , 2 ml of Trypsin-EDTA are added to each plate and incubated at RT for -2 minutes or until cells have lifted off plates. Eight ml of F12 medium are added to each plate to resuspend cells and the entire 10 ml are added to 1 roller bottle containing 90 ml of the F12 medium. • 8. The 60 roller bottles are immediately placed on their sides and transferred to the roller bottle incubator. They are incubated at 37°C + 5% CO2 for ~ 3-5 days. Cells are spun at 30-40% motor speed in the Forma incubator. • 9. Medium is poured off and cells are washed 2X in PBS. • 10. Cells are then scraped off in 20 ml of PBS and the bottles are rinsed again with 5 ml of PBS to remove any remaining cells. Cells are stored on ice before membrane prepration. • 11. The yield for 60 D3 roller bottles has varied from - 260-500 mg. Note: All tissue culture reagents are from Gibco-BRL.
The cells are harvested into 250 ml centrifuge tubes with 100 volumes of cold phosphate buffered saline (PBS) and spun down (1200xG for 10 min at 4°C). The medium is removed and 100 ml PBS are added to each centrifuge tube, cells are resuspened and spun down again. The PBS is removed and the final pellet is homogenized in an appropriate volume of 10% DMSO with a polytron on ice at a medium setting.
A 200 µl sample membrane homogenate is added to 200 µl of 1% SDS, vortexed and allowed to stand for 5 min. Aliquots (25, 50 and 100 µl) of this mixture are assayed in duplicate following the standard Bio-Rad DC protein assay protocol (kit catalog number 500-0112) and using reagent S. Absorbance readings are made at 750 nm (note: the most accurate protein OD readings are between 0.1-0.5 units). […]

[1] = read-out: d3Ki, Table 2, unit inferred
[2] = read-out: d3Ki, Table 2 part the 10th table

Compound: O=C(CCCN1CCCN(c2csc3cc(F)ccc23)CC1)NC1CCCC1 [compound 826840]
- pKi [1]: 7.66

Compound: C[C@@]1(C(=O)NC2CCCCC2)C[C@H]1CN1CCN(c2csc3cc(C(F)(F)F)ccc23)CC1 (relative stereo)
- pKi [1]: 6.85

Compound: CC[C@H]1CC[C@H](NC(=O)[C@@H]2C[C@H]2CN2CCN(c3ncccc3C(F)(F)F)CC2)CC1 (relative stereo)
- pKi (read-out: d3Ki): 8.68

Compound: CN(C(=O)CCCN1CCCN(c2csc3cc(F)ccc23)CC1)C1CCCCC1
- pKi [1]: 7.84

Compound: CC[C@H]1CC[C@H](NC(=O)[C@H]2C[C@@H]2CN2CCN(c3noc4ccsc34)CC2)CC1
- pKi [1]: 6.90

Compound: CN(C(=O)CCCCN1CCN(c2csc3cc(F)ccc23)CC1)c1ccc(F)cc1
- pKi (read-out: d3Ki, Table 2, unit inferred, tested form: HCl): 7.74

Compound: CC1CCCCN1C(=O)CCCN1CCN(c2csc3cc(C(F)(F)F)ccc23)CC1Cc1ccccc1 (stereo not shown)
- pKi [2]: 6.61

Compound: C[C@H]1CC[C@H](NC(=O)[C@@H]2C[C@H]2CN2CCN(c3noc4ccsc34)CC2)CC1
- pKi [1]: 8.26

Compound: CC1[C@@H](CN2CCN(c3csc4cc(C(F)(F)F)ccc34)CC2)[C@@H]1C(=O)N1CCCCC1 (relative stereo)
- pKi [2]: 7.89

Compound: C[C@H]1CC[C@H](NC(=O)[C@@H]2C[C@H]2CN2CCCN(c3csc4cc(C(F)(F)F)ccc34)CC2)CC1 (relative stereo)
- pKi (read-out: d3Ki): 7.82

Compound: C[C@H]1CC[C@H](NC(=O)CCCN2CCN(c3csc4cc(F)ccc34)CC2Cc2ccccc2)CC1 (stereo partly shown)
- pKi [1]: 6.90

Compound: COc1ccc(CNC(=O)[C@@H]2CCCC[C@@H]2CN2CCN(c3csc4cc(C(F)(F)F)ccc34)CC2)c(OC)c1 (relative stereo)
- pKi (read-out: d3Ki): 6.88

Compound: CC[C@H]1CC[C@H](NC(=O)[C@@H]2C[C@H]2CN2CCN(c3c(C)cccc3C)CC2)CC1 (relative stereo)
- pKi (read-out: d3Ki): 7.04

Compound: Cc1csc2c(C3CCN(C[C@@H]4C[C@H]4C(=O)NCCCn4ccnc4)CC3)noc12
- pKi (read-out: D3 Ki): 8.01

Compound: CC[C@H]1CC[C@H](NC(=O)[C@@H]2C[C@H]2CN2CCN(c3cccc4cccnc34)CC2)CC1 (relative stereo)
- pKi [1]: 8.06

Compound: CC[C@H]1CC[C@H](NC(=O)[C@@H]2C[C@H]2CN2CCN(c3ccccc3C)CC2)CC1
- pKi [1]: 8.24

Compound: CC1[C@@H](CN2CCN(c3csc4cc(C(F)(F)F)ccc34)CC2)[C@@H]1C(=O)NC1CC1 (relative stereo)
- pKi [1]: 7.00

Compound: CCOC(=O)C1CCN(C(=O)CCCN2CCN(c3csc4cc(F)ccc34)CC2Cc2ccccc2)CC1 (stereo not shown)
- pKi [2]: 6.50

Compound: O=C(NC1CCN(CC2CCCCC2)CC1)[C@@H]1C[C@H]1CN1CCN(c2csc3cc(C(F)(F)F)ccc23)CC1
- pKi (read-out: D3 Ki): 8.24

Compound: CC[C@H]1CC[C@H](NC(=O)[C@@H]2C[C@H]2CN2CCN(c3csc4cc(C(F)(F)F)ccc34)CC2)CC1
- pKi (read-out: D3 Ki): 7.91

Compound: O=C([C@@H]1C[C@H]1CN1CCCN(c2csc3cc(F)ccc23)CC1)N1CCC(O)CC1 (relative stereo)
- pKi [2]: 8.44

Compound: CC1(C)CCCN(C(=O)CCCN2CCN(c3csc4cc(F)ccc34)CC2)C1
- pKi [2]: 9.09
